Earlier results on one compound are cited in patent publication US20240246969A1, “HETEROCYCLIC DERIVATIVES AS CAMKK2 INHIBITORS” (Bristol-Myers Squibb Company, priority 2021, published 2024).

Chains of the proteins cited; added tags and fusions are not shown.
UniProt Q96RR4, whole entry: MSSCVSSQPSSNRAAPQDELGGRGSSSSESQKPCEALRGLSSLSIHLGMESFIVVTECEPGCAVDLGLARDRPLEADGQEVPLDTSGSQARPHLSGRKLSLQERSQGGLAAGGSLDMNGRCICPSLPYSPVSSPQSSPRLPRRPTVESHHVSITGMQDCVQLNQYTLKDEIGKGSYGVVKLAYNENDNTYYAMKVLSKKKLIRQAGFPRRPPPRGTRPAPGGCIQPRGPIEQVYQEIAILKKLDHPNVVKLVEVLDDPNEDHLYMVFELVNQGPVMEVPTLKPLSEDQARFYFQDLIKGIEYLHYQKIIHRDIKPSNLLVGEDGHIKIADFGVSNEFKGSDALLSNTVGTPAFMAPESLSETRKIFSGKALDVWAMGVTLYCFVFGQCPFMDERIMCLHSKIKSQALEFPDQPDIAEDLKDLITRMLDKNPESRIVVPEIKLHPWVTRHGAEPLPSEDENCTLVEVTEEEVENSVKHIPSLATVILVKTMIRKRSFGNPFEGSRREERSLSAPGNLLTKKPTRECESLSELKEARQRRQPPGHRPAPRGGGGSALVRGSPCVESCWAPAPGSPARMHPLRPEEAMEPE

The target of the series is CaMKK2 (Homo sapiens, UniProt Q96RR4). Conditions: higher affinity for CaMKK2; cited from earlier work.

As to `O=C(O)c1ccc2c3c1cccc3c(=O)n1c3ccccc3nc21` [STO-609], the “affinity for CaMKK2 than CaMKK1” value was “approximately 5 fold”.
